Experiments:
[1] = tested on: guinea-pig papillary muscle; assay: Ability to induce tonic contraction in papillary muscle in the absence of extracellular calcium; settings: drug concentration 100 μM; no extracellular calcium
Protocol: The cardiotonic action of the compound was studied in isolated, electrically driven, right ventricular papillary muscle of guinea-pig. In order to compare the cardiotonic action based on PDEIII inhibition to that based on the other mechanisms the experiments were carried out in normal Tyrode's bathing solution (Otani et al., Japan. J. Pharmacol. 45, 425, 1987) and also in the solution with carbachol to eliminate the cardiotonic action due to the PDEIII inhibition (Alousi & Johnson, Circulation, 73 (suppl. III), 10-23, 1986).
C = ability to induce tonic contraction in the absence of extracellular
calcium; drug concentration 100 μM

troponin = assay: Retention time in troponin high-performance liquid affinity chromatography (HPLAC) column, calcium dependent binding to troponin
Protocol: The contraction in cardiac muscle and in vascular smooth muscle is triggered by the binding of calcium to troponin and to calmodulin, respectively. […] Commercially available troponin was coupled to the matrix of SelectiSpher-10™ Activated Tresyl silica HPLAC column (size 10 cm×5 mm). The compounds were run through the column with the flow rate 1 ml/min and detected by UV-spectrophotometrically.

[2] = tested on: guinea-pig papillary muscle; assay: Cardiotonic effect in isolated, electrically driven, right ventricular papillary muscle, without and with carbachol; settings: with 10 μM carbachol / without carbachol
Protocol: The cardiotonic action of the compound was studied in isolated, electrically driven, right ventricular papillary muscle of guinea-pig.
A = experiments carried out without carbachol
B = experiments carried out in the presence of 10 μM carbachol

## CC1CC(=O)NN=C1c1ccc(NN=C(C#N)C#N)cc1 (centres unmarked) [Example 6, 6-[4-(1,1-dicyanomethylidenehydrazino)phenyl]-4,5-dihydro-5-methylpyridazin-3(2H)one]
[1]
  C: ability to induce tonic contraction in the absence of extracellular calcium: yes
troponin; Ca^2+ solution / EDTA solution
  Ratio Ca^2+ /EDTA (retention times in troponin-HPLAC column): 1.78
troponin; mobile phase with 30 mM calcium, flow rate 1 ml/min
  Retention time in troponin-HPLAC column, Ca^2+ solution: 4.8 min
troponin; mobile phase without calcium (EDTA), flow rate 1 ml/min
  Retention time in troponin-HPLAC column, EDTA solution: 2.7 min
[2]
  Ratio B/A of EC50: 0.94

— patent publication US5019575A, “Novel pyridazinone compounds, compositions thereof and method of use” (Orion-yhtyma Oy, priority 1989, dated 1991)
